The target in assay [1] is T1, PAD4 (Homo sapiens, UniProt Q9UM07).
T1 construct: made in house
Description: Inhibition studies: kinetic analysis of PAD4 activity versus BAEE concentration. The settings on record: BAEE 0-20 mM, 0.2 μM PAD4; read-out: Kis. The assay is classed as biochemical. On the procedure: PAD4 activity was measured as a function of substrate concentration in the absence and presence of increasing concentrations of each inhibitor.
Briefly, the compounds were incubated in Reaction Buffer containing various concentrations of BAEE (0-20 mM) for 10 minutes at 37° C. PAD4 (0.2 μM) was then added to initiate the reaction and allowed to proceed for 6 additional minutes. Reactions were then quenched by flash freezing in liquid N2 and the amount of Cit produced was quantified.
[formula] using GraFit version 5.0.11.

Sequences of proteins named here, by UniProt entry; tags and fusion partners are left off.
UniProt Q9UM07, whole entry: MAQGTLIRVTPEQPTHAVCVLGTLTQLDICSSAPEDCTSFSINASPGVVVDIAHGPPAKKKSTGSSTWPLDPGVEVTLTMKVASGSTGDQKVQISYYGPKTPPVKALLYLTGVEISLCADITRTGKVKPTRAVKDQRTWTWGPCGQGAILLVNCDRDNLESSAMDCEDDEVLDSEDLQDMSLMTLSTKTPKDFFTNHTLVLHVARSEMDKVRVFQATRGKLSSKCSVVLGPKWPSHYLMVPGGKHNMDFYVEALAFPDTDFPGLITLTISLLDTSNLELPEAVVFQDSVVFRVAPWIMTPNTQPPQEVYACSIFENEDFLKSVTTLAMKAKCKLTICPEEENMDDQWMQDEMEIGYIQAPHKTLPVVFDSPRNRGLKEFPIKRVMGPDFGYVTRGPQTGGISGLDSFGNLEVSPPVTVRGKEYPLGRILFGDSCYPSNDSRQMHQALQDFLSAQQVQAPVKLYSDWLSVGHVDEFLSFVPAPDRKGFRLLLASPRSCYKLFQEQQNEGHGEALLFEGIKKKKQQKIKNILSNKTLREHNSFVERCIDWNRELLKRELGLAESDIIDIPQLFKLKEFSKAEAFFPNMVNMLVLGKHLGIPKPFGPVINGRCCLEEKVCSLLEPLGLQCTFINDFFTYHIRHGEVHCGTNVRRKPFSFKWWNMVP

The target in assay [2] is T1, PAD4. The experiment in a line: Standard PAD4 assay (citrulline formation from BAEE), IC50 studies. The assay is classed as biochemical. The source says:
Reactions were quenched by flash freezing in liquid N2. The amount of Cit produced was then quantified according to methods known in the art. […] Inhibition Studies.

The term IC50 denotes the midpoint of a concentration-inhibition curve. High values mean weaker potency, low ones greater potency. For the molecule `CN(C)[C@H]1C(O)=C(C(N)=O)C(=O)C2(O)C(O)=C3C(=O)c4c(O)ccc(Cl)c4C(C)(O)C3CC12` (stereo partly drawn) [Chlortetracycline], at PAD4 [1], the Ki is 540 ± 530 µM. For the same molecule, the IC50 against PAD4 [2] (1 mM BAEE, 0.2 μM PAD4, 15 min pre-incubation at 37° C.) stood at 550 ± 70 µM; on PAD4 [2] (standard assay), 100 µM.

For the origin of these results see US8007996B2, “Methods to identify protein arginine deiminase 4 inhibitors” (University of South Carolina, priority 2007, dated 2011).
